Earlier results, collected in PMC8247773, “Benzohydrazide and Phenylacetamide Scaffolds: New Putative ParE Inhibitors” (Frontiers in Bioengineering and Biotechnology, 2021).

System: Bacillus subtilis (NCIM 2545)
Settings: ref Yele et al., 2020, 2021; cited from earlier work

For COc1ccc(NNC(=O)CSc2nc3ccccc3s2)cc1, the “Minimum inhibitory concentration (MIC) B. s” value is listed as 1.96.
